Test results reported in US20070021484A1, “Substituted N-cinnamyl benzamides” (ChemoCentryx, Inc., priority 2005, published 2007).

The chains behind the UniProt entries cited, without tags or fusion partners.
UniProt P25106, whole entry: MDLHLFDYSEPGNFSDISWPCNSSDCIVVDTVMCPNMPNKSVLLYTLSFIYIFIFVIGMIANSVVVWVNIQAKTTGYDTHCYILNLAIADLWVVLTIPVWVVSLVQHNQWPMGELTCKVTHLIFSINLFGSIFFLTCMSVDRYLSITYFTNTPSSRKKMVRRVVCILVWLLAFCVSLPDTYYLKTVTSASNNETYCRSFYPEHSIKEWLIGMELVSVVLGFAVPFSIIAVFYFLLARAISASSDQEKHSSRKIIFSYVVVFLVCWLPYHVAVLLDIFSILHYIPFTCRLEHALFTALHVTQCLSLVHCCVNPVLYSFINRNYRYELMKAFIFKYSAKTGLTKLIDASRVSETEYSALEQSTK

Target: CCXCKR2 receptor (Homo sapiens, UniProt P25106)
Experiment: Displacement of 125I-labeled SDF-1 from the CCXCKR2 receptor (radioligand binding, determination of IC50 values)
Conditions: read-out: Activity; concentration displacing at least 50% of 125I SDF-1 from CCXCKR2; MCF-7 and/or CCXCKR2 transfected MDA-MB-435S cells; 3 hr at 4° C.
Method: The ability of the compounds to displace the labeled chemokine from the CCXCKR2 receptor sites at multiple concentrations was then determined with the screening process.
Compounds that were deemed effective modulators were able to displace at least 50% of the SDF-1 from the CCXCKR2 receptor at concentrations at or below 2.1 micromolar (μM), as represented by the notation (+) for certain exemplary compounds shown in Table B below, and more preferably at concentrations at or below 700 nanomolar (nM) (++). At present, especially preferred compounds can displace at least 50% of the SDF-1 from the CCXCKR2 receptor at concentrations at or below 500 nM (+++). As stated above, Exemplary compounds that met these criteria are reproduced in Table B below. All compounds were prepared as described in the Examples above, or by related methods substituting readily available starting materials. […]
In these assays, MCF-7 and/or MDA-MB-435S cells were interrogated with the target compounds and the ability of these compounds to displace ^125I radiolabeled SDF-1 was assessed using the protocol described in Dairaghi and Gosling. […] Scintillant (MicroScint 10, Packard) was added to the wells, and the filters were counted in a Packard Topcount scintillation counter. Data were analyzed and plotted using Prism (GraphPad Prism version 3.0a for Macintosh, GraphPad Software, www.graphpad.com).

## COc1cc(C(=O)N(C/C(C)=C/c2ccccc2)C[C@@H]2CCCN2C[C@H]2CC[C@H](N)CC2)cc2c1OC(C)(C)O2
  IC50: < 500 nM
